Source: patent publication US20040023884A1, “Biologically active peptides from functional domains of bactericidal/permeability-increasing protein and uses thereof” (priority 1993, published 2004)

Columns and labels:
[1] = 3H-heparin binding assay (affinity and capacity)
Experimental: Briefly, each fragment was added to wells of a 96-well microtiter plate having a polyvinylidene difluoride membrane (Immunobilon-P, Millipore, Bedford, Mass.) disposed at the bottom of the wells. […] Positive control wells contained varying amounts of rBPI23. […] DuPont-NEN, Wilmington, Del.) were made in the blocking buffer and incubated in the BPI peptide-containing wells for one hour at 4° C. The unbound heparin was aspirated and the wells were washed three times with blocking buffer, dried and removed for quantitation in a liquid scintillation counter (Model 1217, LKB, Gaithersburg, Md.). Although BSA in the blocking buffer did show a low affinity and capacity to bind heparin, this was considered physiologically irrelevant and the background was routinely subtracted from the test compound signal.

[2] = Lipid A binding competition with [125I]-rLBP
Experimental: A second binding assay was developed, wherein radiolabeled recombinant LPS binding protein ([^125I]-rLBP) was used instead of radiolabeled rBPI23 in competition experiments with BPI functional domain peptides BPI.2, BPI.3, BPI.4, BPI.5, BPI.7, BPI.13, BPI.14, BPI.29, BPI.30 and BPI.48, rBPI, rBPI21Δcys, and rLBP25 were included in these assays as controls. In these experiments, Lipid A was adsorbed to the wells at a concentration of 0.7 μg/mL in methanol. Incubation of radiolabeled rLBP (a total of 650,000 cpm and a specific activity of 3.45 μCi/μg) was performed for 2.5 hr at 37° C. in the presence of BPI peptides in a series of increasing concentrations. IC50 values (i.e., the concentration at which Lipid A binding of radiolabeled rLBP25 is inhibited to one half the value achieved in the absence of the peptide) are shown in accompanying Table XI.

[3] = test system: LPS-stimulated NO production by RAW 264.7 cells; test: LPS-stimulated NO production by RAW 264.7 cells; assay type: cell-based, mouse
Experimental: An additional LPS neutralization screening assay for BPI functional domain peptides was developed using an assay for NO production in mouse cells treated with LPS (see Lorsbach et al., 1993, J. Biol. Chem. 268: 1908-1913). In this assay, mouse RAW 264.7 cells (ATCC Accession No. TIB71) were treated with bacterial LPS. The cells were incubated in 96-well plates and stimulated for 2 hours with E. coli 0113 LPS or zymosan, in the presence or absence of _-interferon, rLBP, fetal bovine serum (FBS) or normal human serum (NHS), or rBPI21Δcys. After this incubation, the cells were washed with fresh media and incubated overnight in media containing 10% FCS. The NO released from the cells accumulated in the media and spontaneously converted to nitrite. This nitrite was assayed in situ by the Griess reaction, as follows. The nitrite was reacted with the primary amine of an added sulfanilamide and formed a diazonium salt. This salt was then reacted with added naphthylethylenediamine to form a red azo-dyc. The Griess reaction was performed at room temperature in about 10 minutes. The amount of produced NO was estimated from a standard curve of Griess reaction products determined spectrophotometrically as Absorbance at a wavelength of 550 nm.

Compound: CC[C@H](C)[C@H](NC(=O)[C@H](CCCCN)NC(=O)[C@H](CCCCN)NC(=O)[C@H](Cc1c[nH]cn1)NC(=O)[C@H](Cc1ccccc1)NC(=O)[C@H](CC(C)C)NC(=O)[C@H](CCC(N)=O)NC(=O)[C@@H](NC(=O)[C@H](CC(C)C)NC(=O)[C@H](Cc1c[nH]c2ccccc12)NC(=O)CNC(=O)[C@@H](NC(=O)[C@H](CCCCN)NC(=O)[C@H](CO)NC(=O)[C@H](CCCCN)NC(=O)[C@H](CO)NC(=O)[C@@H](NC(=O)[C@H](Cc1c[nH]cn1)NC(=O)[C@@H](NC(=O)[C@H](Cc1c[nH]cn1)NC(=O)[C@@H](N)C(C)C)C(C)C)[C@@H](C)CC)C(C)C)[C@@H](C)CC)C(=O)N[C@@H](CCC(=O)O)C(=O)O [BPI.5]
- Kd [1]: 193 nM
- Heparin Capacity ([1]; heparin bound at saturation): 177.6 ng
- IC50 (inhibition of Lipid A binding of radiolabeled rLBP) [2]: 4.42 µg/mL
- IC50 ([2]; read-out: IC50 (inhibition of Lipid A binding of radiolabeled rLBP)): 1700 nM
- inhibition of LPS-stimulated NO production (in words) [3]: detectable levels of LPS neutralization
